# Measurements published in PubChem BioAssay AID624418 (National Center for Advancing Translational Sciences (NCATS), 2012).
# The list shows a part of the results, in another mix than the full data. Inconclusive results are not listed. Active and inactive are the calls of the source. Calls follow the shape of the dose curve; as a rule, active = well fitted inhibition curve with a large enough effect; inconclusive = small, poorly fitted or top-dose-only effect, or another doubt; inactive = no such curve, though single readings can be large or run the other way.
# Experiment: qHTS of GLP-1 Receptor Inverse Agonists: Cytotox Screen;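 also: loss of luciferase light is scored as toxicity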
# Details: HEK293 cAMP-luciferase reporter cells, luminescence, 24 h; series mostly up to 38.3 µM
# Text: The overall goal of this project was to develop a novel assay for discovering small molecule ligands for class B1 G protein-coupled receptors (GPCRs). Very few agonists (or inverse agonists) with generally weak activity for this entire group of physiologically important receptors are known to date. To establish proof-of-principle that this critical bottleneck can be overcome with a suitable screening approach, our studies focused on the class B1 receptor for glucagon-like peptide-1 (GLP-1R), a potential therapeutic target for diabetes and neurodegenerative disease.
# The assay was developed using a cell-based functional readout. Toward this goal, stably transfected HEK293 cell clones were established that co-express (i) a cAMP-responsive luciferase reporter gene, and (ii) constitutively active GLP-1R that upon ligand interaction inhibit (inverse agonists) the luciferase activity. In addition, two control cell lines were developed: (i) one that express only the cAMP-responsive reporter gene to enable initial exclusion of GLP-1R independent effects of candidate probes; and (ii) one with the reported gene cloned with another constitutively active orphan receptor GPR119 to enable exclusion of GLP-1R independent inhibitor effects of candidate inverse agonists.
# To that end, this assay was optimized for 1536-well format and screened against the MLSMR. Then the same collection was run in this cytotoxicity assay where inhibition was the undesired outcome.
# NIH Molecular Libraries Probe Production Network [MLPCN]
# NIH Chemical Genomics Center [NCGC]
# PI Name: Martin Beinborn, Tufts Medical Center
# Six ul of cell suspension (200 cells/uL in DMEM + 10% Nu serum + 1% pen-strep) is dispensed in a white solid 1536-well plate. The plates are incubated for 12 hours at 37 deg C at 5% CO2 followed by addition of 23 nL compounds. After 24 hr incubation at 37 deg C and 5% CO2, 3 uL of luciferase assay detection reagent is added. A luminescence read is obtained on the PerkinElmer Viewlux after 12 min incubation at room temperature.
# % is scaled to controls: 0 for no effect and ±100 for the full control effect.
row,SMILES,"activity change, negative = inhibition"
1,CS(=O)(=O)c1cc([N+](=O)[O-])c2no[n+]([O-])c2c1,inactive
2,O=P(Nc1nccs1)(Oc1ccccc1)Oc1ccccc1,inactive
3,CCOP1(=S)c2c(C)nn(CCC#N)c2N=C(c2ccccc2F)N1C (stereo unspecified),inactive
4,O=C(O)COc1ccc([As](=O)(O)O)cc1[N+](=O)[O-],inactive
5,Nc1ccccc1[As](=O)(O)c1ccccc1,inactive
6,NC(=O)Nc1ccc([As](=O)(O)O)cc1,inactive
7,CN(C(=O)Cc1ccc(Cl)c(Cl)c1)[C@H]1CC[C@@]2(CCCO2)C[C@@H]1N1CCCC1,inactive
8,O=[N+]([O-])c1ccc2c(c1)nnn2O,inactive
9,CN(C(=O)Cc1ccccc1)[C@@H]1CC[C@]2(CCCO2)C[C@H]1N1CCCC1,inactive
10,CCOP1(=S)c2c(C)nn(CCC#N)c2N=C(c2ccc(F)cc2)N1C (stereo unspecified),inactive
11,N#CCCN(C(=O)COC(=O)C(O)(c1ccccc1)c1ccccc1)c1ccc(F)cc1,inactive
12,CS(=O)(=O)c1ccc(Cl)c(NC(=O)COC(=O)C(O)(c2ccccc2)c2ccccc2)c1,inactive
13,COc1cc(C(=O)NCC2(N3CCOCC3)CCCCC2)cc(Cl)c1OC(C)C,inactive
14,O=[As](O)(O)c1cccnc1,inactive
15,O=C(OC1CN2CCC1CC2)c1ccc(Cl)cc1 (stereo unspecified),inactive
16,O=[As](O)(c1cccc(O)c1)c1cccc(O)c1,inactive
17,Cc1cccc(OCC(=O)OC2CN3CCC2CC3)c1 (stereo unspecified),inactive
18,CCCOP(=S)(Nc1nc(N)cc(=O)[nH]1)OCCC,inactive
19,Nc1cccc2c([As](=O)(O)O)cccc12,inactive
20,Cc1ccc(NCCc2c([N+](=O)[O-])cc([N+](=O)[O-])cc2[N+](=O)[O-])cc1,inactive
21,CCOP(=O)(Nc1cccc2ccccc12)OCC,inactive
22,COc1cc(C2NCCC3(OCCO3)C2(C)C)cc(OC)c1OC (stereo unspecified),inactive
23,CN(CCCl)Cc1cc(Cl)c(NC2=NCCN2)c(Cl)c1,inactive
24,CCOP(=O)(Nc1ccc(C)cn1)OCC,inactive
25,CCOP(=O)(NC(=NC(C)c1ccccc1)NC(C)c1ccccc1)OCC (stereo unspecified),inactive

row,SMILES,"activity change, negative = inhibition"
1,CCC1=CC2Cc3nc4ccc(Cl)cc4c(N)c3C(C1)C2 (stereo unspecified),inactive
2,O=P1(Nc2ccccn2)COc2ccccc2OC1,inactive
3,CC(C)(C)C(=O)NC(Sc1ncccn1)C(Cl)(Cl)Cl (stereo unspecified),inactive
4,Clc1n[nH]nc1-c1nn[nH][15n]1,inactive
5,O=P1(N(CCCl)CCCl)NCCC(C(F)(F)F)O1 (stereo unspecified),inactive
6,COc1ccccc1CNC(=O)COC(=O)C(O)(c1ccccc1)c1ccccc1,inactive
7,CC1(CBr)Cn2c(nc3ccccc3c2=O)S1 (stereo unspecified),inactive
8,CC(C)/C=N\N=C(\N)N[N+](=O)[O-],inactive
9,Cc1ccc(C(=O)OC2CN3CCC2CC3)cc1 (stereo unspecified),inactive
10,CC1CCC(C(C)C)C(OP(=O)(Nc2ccccn2)c2ccccc2)C1 (stereo unspecified),inactive
11,Cc1nn(-c2ccccc2)c2c1P(=O)(N1CCOCC1)N(C)C(c1ccccc1)=N2 (stereo unspecified),inactive
12,CCCC1OP(=O)(Nc2ccccc2)OCC1CC (stereo unspecified),inactive
13,O=C(/C=C/c1ccccc1)OC1CN2CCC1CC2 (stereo unspecified),inactive
14,CN(C)C1(CNC(=O)c2ccc(S(C)(=O)=O)cc2)CCCCC1,inactive: -0.727% [at 7.66 µM]
15,O=P1(Nc2ncccn2)COc2ccccc2OC1,inactive
16,Cc1ccc(S(=O)(=O)N(CCCN)CCCc2c(C)nc(N)[nH]c2=O)cc1,inactive
17,NS(=O)(=O)c1cccc(NC(=O)COC(=O)C(O)(c2ccccc2)c2ccccc2)c1,inactive
18,O=P1(Nc2ccc(Br)cn2)COc2ccccc2OC1,inactive
19,O=[As](O)(c1cccs1)c1cccs1,inactive
20,Cc1ccc(OCC(=O)OC2CN3CCC2CC3)cc1 (stereo unspecified),inactive
21,Nc1cccc([As](=O)(O)c2ccccc2)c1,inactive
22,CC1CCNP(=O)(N(CCCl)CCCl)O1 (stereo unspecified),inactive
23,O=C(O)C(O)c1ccc(N(CCCl)CCCl)cc1 (stereo unspecified),inactive
24,CCOC(=O)Nc1ccc([As](=O)(O)O)c(O)c1,inactive
25,Cc1cc(SC(NC(=O)c2ccccc2)C(Cl)(Cl)Cl)nc(C(C)C)n1 (stereo unspecified),inactive

row,SMILES,"activity change, negative = inhibition"
1,CCCCOc1ccc(C(=O)NCC2(N3CCCCC3)CCCCC2)cc1OC,inactive
2,COP(=O)(OC)N1CC1c1ccccc1 (stereo unspecified),inactive
3,CCOC(=O)Nc1cccc([As](=O)(O)O)c1,inactive
4,O=[N+]([O-])c1ccc(Nc2ccc(Oc3ccc([N+](=O)[O-])cc3[N+](=O)[O-])cc2)c([N+](=O)[O-])c1,inactive
5,Cc1cc(SC(NC=O)C(Cl)(Cl)Cl)ncn1 (stereo unspecified),inactive
6,O=P(Nc1ccccn1)(c1cccc2ccccc12)c1cccc2ccccc12,inactive
7,COC(=O)C1(C)COP(=O)(N2CCCC2)OC1 (stereo unspecified),inactive
8,COP1(=S)c2c(C)nn(CCC#N)c2N=C(c2ccc(F)cc2)N1C (stereo unspecified),inactive
9,O=C(Nc1ccncc1[N+](=O)[O-])c1ccc([N+](=O)[O-])cc1[N+](=O)[O-],inactive
10,O=C(COc1ccccc1)OC1CN2CCC1CC2 (stereo unspecified),inactive
11,O=C(O)C(=O)c1ccc(N(CCCl)CCCl)cc1,inactive
12,CCOC(=O)c1ccc(NC(=O)C(C)(CCl)SC)cc1 (stereo unspecified),inactive
13,O=C(OC1CN2CCC1CC2)c1cccc([N+](=O)[O-])c1 (stereo unspecified),inactive
14,CCC(C)N(CC(C)C)C(=S)SC(NC(C)=O)C(Cl)(Cl)Cl (stereo unspecified),inactive
15,Cc1cc(=O)[nH]c(N[N+](=O)[O-])n1,inactive
16,O=C(OC1CN2CCC1CC2)C12CC3CC(CC(C3)C1)C2 (stereo unspecified),inactive
17,Cc1c2c(nc3ccccc13)SC(C(Cl)Cl)C2 (stereo unspecified),inactive
18,COc1cc(I)ccc1[As](=O)(O)O,inactive
19,COc1ccc2nc(NP(=O)(c3ccccc3)c3ccccc3)sc2c1,inactive
20,O=P1(N(CCCl)CCCl)OCCCN1CCCl (stereo unspecified),inactive
21,O=P1(N(CCCl)CCCl)Nc2ccccc2N1,inactive
22,COc1ccc(N/C(=N/P(=O)(N2CCOCC2)N2CCOCC2)N2CCOCC2)cc1,inactive: -3.64% [at 7.66 µM]
23,O=[N+]([O-])c1cc(Oc2ccc([N+](=O)[O-])cc2C(F)(F)F)cc([N+](=O)[O-])c1,inactive
24,COc1cc(C(=O)NCC2(N3CCOCC3)CCCCC2)ccc1OCC(C)C,inactive
25,O=[As](O)(c1ccc(O)cc1)c1ccccc1O,inactive

row,SMILES,"activity change, negative = inhibition"
1,C[As](=O)(O)c1cccc(C(=O)O)c1,inactive
2,Cc1ccc2nc3c(c(C)c2c1)CC(C(Cl)Cl)S3 (stereo unspecified),inactive
3,Cc1ccc(OP(=O)(Nc2ccc([N+](=O)[O-])cn2)Oc2ccc(C)cc2)cc1,inactive
4,[N-]=[N+]=NC1CCCCC1NC(=O)c1cc([N+](=O)[O-])cc([N+](=O)[O-])c1 (stereo unspecified),inactive
5,CC(C)c1ccc(OP(=O)(Nc2ccccn2)Oc2ccccc2F)cc1 (stereo unspecified),inactive
6,COC(=O)C1(C)COP(=O)(N2CCCCCC2)OC1 (stereo unspecified),inactive
7,ClCCSc1nnc(-c2cccnc2)o1,inactive
8,O=C(OC1CN2CCC1CC2)c1cccc2[nH]cnc12 (stereo unspecified),inactive
9,CCN(CC)C(=S)SC(NC=O)C(Cl)(Cl)Cl (stereo unspecified),inactive
10,CC(C)NC(=O)NP(=O)(Oc1ccccc1)Oc1ccccc1,inactive
11,CCCC1OP(N)(=O)OCC1CC (stereo unspecified),inactive
12,O=C(O)c1ccccc1[As](=O)(O)O,inactive
13,CC(=O)Nc1ccc([As](=O)(O)O)cc1,inactive
14,CN(C)P(=O)(N(C)C)n1c(Nc2ccccc2)nnc1-c1ccccc1,inactive
15,Cc1ccc(NP(=O)(Oc2ccccc2F)Oc2ccccc2F)nc1,inactive
16,CCOP(=O)(Nc1ccccc1)OCC,inactive
17,Cc1cc(SC(NC(=O)c2ccc(F)cc2)C(Cl)(Cl)Cl)ncn1 (stereo unspecified),inactive
18,CCN(N=Nc1nonc1N)c1nonc1N,inactive
19,Nc1cccc2ccc([As](=O)(O)O)cc12,inactive
20,NC(=O)c1cc([N+](=O)[O-])cc([N+](=O)[O-])c1N,inactive
21,Cc1ccc(N/C(=N/P(=O)(N2CCOCC2)N2CCOCC2)N2CCOCC2)cc1,inactive
22,Cc1ccc(OP(=O)(Nc2nccs2)Oc2ccc(C)cc2)cc1,inactive
23,COc1ccccc1OP(=O)(Nc1ccc(C)cn1)Oc1ccccc1OC,inactive
24,Clc1ccc(Cl)c(NC2=NCC(CBr)S2)c1 (stereo unspecified),inactive
25,CN1CCCC(OC(=O)C(c2ccccc2)c2ccccc2)C1 (stereo unspecified),inactive

row,SMILES,"activity change, negative = inhibition"
1,CC(C)CC(=O)NC(Sc1ccc(Cl)cc1)C(Cl)(Cl)Cl (stereo unspecified),inactive
2,Nc1cc(N)c2nonc2c1[N+](=O)[O-],inactive
3,O=C(NC(Sc1ccncn1)C(Cl)(Cl)Cl)c1ccccc1 (stereo unspecified),inactive: 0.146% [at 1.53 µM]
4,Oc1ccccc1CNc1ccccn1,inactive
5,O=[N+]([O-])C1C(O)C(O)C([N+](=O)[O-])C(O)C1O (stereo unspecified),inactive
6,COc1ccc(C2=NCC(CBr)S2)cc1 (stereo unspecified),inactive
7,CC(=O)N1C2C3N(C(C)=O)C1C1N(C(C)=O)C(C(N1C(C)=O)N3C(C)=O)N2C(C)=O,inactive
8,O=[N+]([O-])c1cccc2n[nH]nc12,inactive
9,O=[N+]([O-])c1cc([N+](=O)[O-])c(CCNc2ccccc2)c([N+](=O)[O-])c1,inactive
10,Cc1ccc(NP(=O)(Oc2ccccc2)Oc2ccccc2)nc1,inactive
11,Nc1ccc([As](=O)(O)c2ccc(N)cc2)cc1,inactive
12,CCN(/C(=N/P(=O)(N1CCOCC1)N1CCOCC1)N1CCOCC1)c1ccc(OC)cc1,inactive
13,CN(C)C(=O)OCCc1n(C)cc[n+]1C,inactive
14,CC(C)=N/N=C(\N)N[N+](=O)[O-],inactive
15,CC(C)c1nc(Nc2ccccc2)n(P(=O)(N(C)C)N(C)C)n1,inactive
16,c1cc(-c2nn[nH]n2)ccc1-c1nn[nH]n1,inactive
17,CC1CCN(C(=O)Oc2c(Cl)cc(Cl)c3cccnc23)CC1,inactive
18,O=P1(N(CCCl)CCCl)OCCCS1 (stereo unspecified),inactive
19,O=C(Nc1cc([As](=O)(O)O)ccc1O)c1ccccc1,inactive
20,CC(C)(C)C(=O)NC(Sc1ccncn1)C(Cl)(Cl)Cl (stereo unspecified),inactive
21,O=[N+]([O-])c1ncn(CCn2ncnc2[N+](=O)[O-])n1,inactive
